Patent publication EP4840855A1, “SULFONAMIDE DERIVATIVE, PREPARATION METHOD THEREFOR AND USE THEREOF” (dated 2026)

Protein sequences, listed by entry. Tags and fused reporters are not part of them.
UniProt P17812, whole entry: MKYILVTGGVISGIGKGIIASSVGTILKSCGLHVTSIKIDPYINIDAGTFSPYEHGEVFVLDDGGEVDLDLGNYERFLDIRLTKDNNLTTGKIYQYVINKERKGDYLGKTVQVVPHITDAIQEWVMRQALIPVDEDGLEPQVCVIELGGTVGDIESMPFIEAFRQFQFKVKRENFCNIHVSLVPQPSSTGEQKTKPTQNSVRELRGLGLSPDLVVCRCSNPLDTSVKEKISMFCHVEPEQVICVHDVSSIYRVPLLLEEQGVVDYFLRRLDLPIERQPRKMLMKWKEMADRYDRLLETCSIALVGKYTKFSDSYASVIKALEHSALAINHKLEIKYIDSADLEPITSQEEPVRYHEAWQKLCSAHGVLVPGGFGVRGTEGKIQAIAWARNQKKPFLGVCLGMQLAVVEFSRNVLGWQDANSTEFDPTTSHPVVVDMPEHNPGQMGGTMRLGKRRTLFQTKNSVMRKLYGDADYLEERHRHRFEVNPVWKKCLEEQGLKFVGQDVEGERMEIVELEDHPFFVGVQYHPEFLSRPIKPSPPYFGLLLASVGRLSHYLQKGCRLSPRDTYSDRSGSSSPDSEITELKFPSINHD

How the values were obtained:
[1] = target: human cytidine triphosphate synthase 1 (hCTPS1) (Homo sapiens, UniProt P17812); test: Inhibition on hCTPS1 enzyme activity (ADP-Glo Kinase Assay); conditions: 40 nM hCTPS1, 120 µM ATP, 160 µM UTP, 60 µM GTP, 100 µM L-Glutamine, 120 minutes
Procedure: The following method was used to determine the degree of inhibition on human cytidine triphosphate synthase 1 (hCTPS1) enzyme activity by the compounds of the present disclosure in vitro. ADP-Glo™ Kinase Assay kit (catalog number V9102) from Promega was used in this method. The kit's manual may be referred for a detailed experimental procedure.
The experimental procedure was briefly described as follows: The reaction was performed in a buffer containing 50 mM 4-hydroxyethylpiperazineethanesulfonic acid (HEPES), 10 mM magnesium chloride, 5 mM potassium chloride, 0.01% Pluronic F127, and 4 mM dithiothreitol in a 384-well plate. First, 100 nL of gradient-diluted compound was transferred to the 384-well plate via a nanoliter acoustic liquid transfer system (manufacturer: Labcyte; catalog number: Echo 655), and 2.5 µL of buffer containing hCTPS1 was added, followed by incubation in a 25°C incubator for 10 minutes. Then 2.5 µL of buffer containing ATP and UTP was added, followed by incubation in a 25°C incubator for 10 minutes. Finally, 5 µL of buffer containing GTP and L-glutamine (L-Gln) was added to initiate the reaction. The final reaction system was: 40 nM hCTPS1, 120 µM ATP, 160 µM UTP, 60 µM GTP, 100 µM L-Glutamine, 1% DMSO, with a total assay volume of 10 µL. The reaction was performed for 120 minutes, then 10 µL of ADP-Glo Reagent was added, followed by incubation for 1 hour. Then 20 µL of Kinase Detection Reagent was added, and after 1 hour, the chemiluminescence value was recorded on a Microbeta microplate reader (manufacturer: PerkinElmer; catalog number: Envision). The percentage inhibition rates of the compounds at each concentration were calculated by comparing the chemiluminescence intensity ratio with a control group (0.1% DMSO). The IC50 value of the compounds were obtained by nonlinear regression analysis of compound concentration logarithm-inhibition rate using GraphPad Prism 5 software, as shown in Table 2. Table 2 IC50 data for inhibition on hCTPS1 enzyme activity by the compounds of the present disclosure

[2] = system: MIA PaCa-2 cells (human pancreatic cancer cells); test: Inhibition of MIA PaCa-2 cell proliferation (CellTiter-Glo cell viability); conditions: 120 hours culture
Procedure: The following method was used to determine the effect of the compounds of the present disclosure on the proliferation of MIA PaCa-2 cells (human pancreatic cancer cells). MIA PaCa-2 cells were purchased from the Cell Resource Center of Shanghai Institutes for Biological Sciences, Chinese Academy of Sciences, and were cultured in DMEM medium containing 10% fetal bovine serum, 2.5% heat-inactivated horse serum, 1% sodium pyruvate (Gibco, catalog number 11360070), 100 U penicillin, and 100 µg/mL streptomycin. Cell viability was determined using CellTiter-Glo® Luminescent Cell Viability Assay kit (Promega, catalog number G7573).
The experimental method was performed according to the steps in the kit's manual, briefly described as follows: The test compound was first dissolved in DMSO to prepare a 10 mM stock solution, then diluted with medium to prepare test samples, with a final concentration range of the compound from 10000 nM to 1.52 nM. Cells in logarithmic growth phase were seeded into a 96-well cell culture plate at a density of 1000 cells per well, then the test compounds were added, and the cells were cultured in a 37°C CO2 incubator for 120 hours. After culture was completed, 50 µL of CellTiter-Glo detection reagent was added to each well, the plate was shaken for 5 minutes, then allowed to stand for 10 minutes, and then the luminescence value of each well of the sample was read on a microplate reader using Luminescence mode. The percentage inhibition rates of the compounds at each concentration point were calculated by comparing with the value of a control group (0.1% DMSO). Then nonlinear regression analysis was performed on compound concentration logarithm-inhibition rate in GraphPad Prism 9 software to obtain the IC50 values of the compounds for inhibiting cell proliferation, as shown in Table 5. Table 5 IC50 data for inhibition of MIA PaCa-2 cell proliferation by the compounds of the present disclosure

[3] = Pharmacokinetic testing in mice (plasma concentration by LC-MS/MS); conditions: ICR mice, male, Oral (10 mg/kg), fasted overnight
Procedure: ICR mice were used as test animals. Plasma concentrations of the test compounds at different time points were measured by LC/MS/MS after intragastrical administration of the reference compound STP-B and the compounds of the present disclosure, and the pharmacokinetic characteristics of the compounds of the present disclosure in mice were studied.
ICR mice, male, 30.8 to 38.0 g, purchased from Vital River Laboratory Animal Technology Co., Ltd.
An appropriate amount of the test compound was weighed, and an appropriate amount of DMA (N,N-dimethylacetamide), 30% Solutol HS15 (30% polyethylene glycol-15 hydroxystearate), and saline were added sequentially, mixed by ultrasonication and vortexing to prepare a 1 mg/mL dosing formulation. The ratio of DMA:30% Solutol HS15:saline was 10:10:80 (v/v/v).
ICR mice in each test compound injection group (9 mice per group) were fasted overnight and then administered intragastrically (PO, compound dose was 10 mg/kg, dosing volume was 10 mL/kg), and fed 4 hours after dosing.
About 0.1 mL of blood was collected from the orbit before dosing and at 0.25 h, 0.5 h, 1 h, 2 h, 4 h, 8 h, 10 h, and 24 h after dosing, and whole blood samples were placed in anticoagulant tubes containing EDTA-K2. After blood sample collection, samples were placed on ice and centrifuged to separate plasma (centrifugation conditions: 1500 g, 10 minutes). The collected plasma was stored at -40 to -20°C before analysis.
The content of test compounds in mouse plasma after intragastrical administration was determined by LC-MS/MS.

## CCOc1cncc(-c2ccc(NC(=O)C3(c4cc(NS(=O)(=O)C5CC5)ncn4)CC4CC4C3)c(F)c2)n1 (stereo not shown)
[1]
  IC50: 0.009 µM
[2]
  IC50: 0.0508 µM
[3]
  AUC AUC0-1(ng·h/mL): 651817 ng·h/mL
  Half-life T1/2: 4.87 h
  Plasma concentration Cmax: 80.937 µg/mL

## CCOc1cncc(-c2cnc(C(=O)NC3(c4cc(NS(=O)(=O)C5CC5)ncn4)CC4CC4C3)s2)n1 (stereo not shown)
[1]
  IC50: 0.0092 µM
[2]
  IC50: 0.0455 µM
[3]
  AUC AUC0-1(ng·h/mL): 118000 ng·h/mL
  Half-life T1/2: 7.41 h
  Plasma concentration Cmax: 23.8 µg/mL
